Measured affinities in a library of Ab-14 light chain variants

Reference: Li et al. 2023, doi:10.1038/s41467-023-39022-2. File: FLAb, binding data.

The target is the same throughout: PDVDLGDISGINAS, from the HR2 region of SARS-CoV-2 spike.

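These sequences belong to a second round, designed from the earlier measurements on random variants of the parent. Several design methods are mixed in this list. AlphaSeq pools MATa yeast showing the antibodies with MATalpha yeast showing the peptide. The frequency of each diploid, read from paired DNA barcodes, reflects how well the two displayed proteins bind. Read counts were normalised to the haploid input and turned into Kd by a linear fit to BCL2-family pairs of known affinity, for each replicate. Each pool was mated in six replicate cultures.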

Parent scFv Ab-14: VH joined to VL by the linker GGGGSGGGGSGGGGS. Changes lie in the light chain CDRs alone.
VH: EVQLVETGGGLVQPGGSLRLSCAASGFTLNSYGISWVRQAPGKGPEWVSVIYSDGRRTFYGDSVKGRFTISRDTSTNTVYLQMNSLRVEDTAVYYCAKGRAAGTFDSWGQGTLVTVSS
VL: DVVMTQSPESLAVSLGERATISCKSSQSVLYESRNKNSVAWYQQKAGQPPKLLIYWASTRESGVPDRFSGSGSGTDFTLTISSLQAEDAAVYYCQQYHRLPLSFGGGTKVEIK

Variants are written as CDR1, CDR2 and CDR3 of the light chain (limits as in the source). Parent: KSSQSVLYESRNKNSVA, WASTRES, QQYHRLPLS. Variants here have more than six changes. Affinities are written as log10 Kd with Kd in nM; a lower number is a better binder. "nd" marks a missing value. The strain was present, yet no cells mated with the target were sequenced in that replicate, which points to weak or no binding.

* AFSESAFYGQRDENAIA, GADVRAK, QQYWRLPLT = 0.49, 0.35, 0.30, 0.08, 0.10, 0.43 (controls 2 of 18)
* HLKTMPGQGPQTYSSIA, HAELRTP, QQYYRLPLM = 1.01, 1.05, 0.50, 0.31, 0.28, 0.74 (controls 1 of 18)
* KVQQSWLYESRNINNVA, NASKRES, QQYHRLPLS = -0.14, 0.02, -0.13, -0.28, -0.32, -0.16 (controls 0 of 18)
* TIGGTLMYGVRNRSNVA, EVSERLN, QQYDRLPLI = 1.39, 1.57, 1.16, 1.31, 1.16, 1.06 (controls 0 of 18)
* KLSQQWLQQWRNKNSVA, NASTRES, QQYHRLPLS = 0.33, 0.22, 0.20, 0.05, 0.16, 0.30 (controls 2 of 18)
* KLSMETYGLTGHMSSIA, HVEIRWA, QQYHKLPLI = nd, nd, nd, nd, nd, nd (controls 0 of 18)
* KIQQSELYEDRQKNSVA, NASDRMS, QQYHRLPLS = 0.26, 0.00, -0.04, 0.04, 0.05, 0.20 (controls 0 of 18)
* LLSGSMQYEQRNKNSVA, DASTRES, QAYHRLPLS = 0.31, 0.53, 1.01, 0.44, 0.59, 0.31 (controls 0 of 18)
* KVDQWEEYGSRNKNSVA, SASQRSS, QQYHRLPLS = 0.08, -0.02, -0.09, -0.35, -0.16, 0.04 (controls 3 of 18)
* QISVFELQGTGWAQNIA, QASHRTE, QQFSRLPLV = 1.59, 1.42, 1.27, 0.47, 1.45, 0.62 (controls 0 of 18)
* KLGQLVGYESRNKSRVA, DNSTRES, QQYDRLPLS = nd, nd, 1.70, nd, nd, nd (controls 1 of 18)
* KLRQVTGYESYIRNSVA, QMSTRAE, QDYHRLPLS = 0.55, 0.27, 1.66, 0.50, 0.18, 1.28 (controls 0 of 18)
* MMGLCQNGYYQQNNSIA, DVNERAM, QQYGRLPLV = 3.11, 3.34, 2.39, 2.57, 2.44, 2.85 (controls 0 of 18)
* KLSATYRYESQNKNSIA, EMTTRES, QCYHRLPLS = 1.49, 0.53, 0.65, 0.66, 1.32, 1.26 (controls 0 of 18)
* MITGSMENQESNQNPVA, SATCKAP, QQYFRLPLM = 1.14, 1.34, 0.89, 0.96, 1.10, 1.09 (controls 1 of 18)
* KLSESVLYESQNWNQVA, EASTRMS, QQYHRLPLS = 0.45, 0.09, 0.15, 0.15, 0.32, 0.29 (controls 0 of 18)
* KLQNLMGTMGKQNQNIA, QGAITRV, QQYQRLPLW = 0.55, 0.45, 0.62, 0.58, 0.33, 0.91 (controls 0 of 18)
* KIHELGKGNIKTANNIA, QTDIRMS, QSYNRLPLS = 0.76, 0.56, 0.62, 0.68, 0.54, 0.90 (controls 3 of 18)
* MLGDTVMQGMYSRNSVA, QESTRAD, QQYHHLPLS = 0.33, 0.32, 0.26, 0.12, 0.31, 0.45 (controls 2 of 18)
* KVMQSMPYESRNKNSVA, EASQREL, QQYHRLPLS = 0.02, -0.01, -0.10, -0.32, -0.14, -0.02 (controls 1 of 18)
* MISQILNMGQFAINSVA, QASLRNE, QQYDRLPLA = nd, nd, nd, nd, nd, nd (controls 0 of 18)
* KSSQDVNYDSRNKNSVA, WRLTRER, QQYHELPLS = nd, nd, nd, nd, nd, nd (controls 0 of 18)
* MLSDLVLYGVRNTNSVA, DNSTRGS, QQYDRLPLS = 1.85, 1.37, 1.97, 2.23, 2.25, 1.72 (controls 0 of 18)
* SLMQFGGYESNAHNSIA, DLRTRES, QQYHRLPLS = nd, 0.14, 0.65, -0.53, -0.59, 1.13 (controls 0 of 18)
* KYEGQELTESRNKNSVA, NASTRES, QQYHQLPLS = 0.82, 1.11, 0.78, 1.06, 1.01, 1.06 (controls 2 of 18)
* HFDDLMVEWDANQSQVA, DHNEAQH, QQYARLPLS = nd, 1.35, nd, 1.05, 1.96, 1.20 (controls 0 of 18)
* KLSQSVEYEERDKNSVA, DAQTRLS, QQYHRLPLS = 0.55, 0.05, 0.45, 0.25, 0.21, 0.28 (controls 0 of 18)
* KLSMWTYGPTEDKSNVA, NDEMRWQ, QQYDKLPLI = nd, nd, nd, nd, nd, nd (controls 0 of 18)
* MLWQQMEGFNLVKDAIA, NAEERTG, QQYGRLPLS = nd, 2.64, 1.26, 1.41, 2.10, 3.70 (controls 0 of 18)
* MMLYGDNSVGAQKDSIA, EAEQVME, QHYFRLPLV = nd, 1.32, nd, nd, nd, 0.93 (controls 0 of 18)
* KWLQSQEYESRNKNSVA, HASTRED, QQYHCLPLS = nd, nd, nd, nd, nd, nd (controls 0 of 18)
* TISQLMYYESRNKNNVA, GTSTRES, QCYHRLPLS = 0.26, 0.24, 0.20, 0.22, 0.26, 0.33 (controls 2 of 18)
* KQSQSVGGMQRNKNSVA, EASTREM, QQYHRLPLS = 1.18, 0.63, 0.95, 0.90, 1.03, 0.75 (controls 1 of 18)
* MISQLYNMGQFAINSVA, QGSTRNQ, QQYDRLPLM = nd, nd, nd, 1.75, 1.39, 1.87 (controls 0 of 18)
* KFDFQMPELNYQDNAVA, GMTVSIE, QHYFRLPLT = nd, nd, nd, 1.99, nd, 2.72 (controls 0 of 18)
* MITGAMEQEWSNKNPVA, SATDRAP, QSYFRLPLM = 0.66, 1.07, 0.69, 0.76, 0.97, 1.11 (controls 3 of 18)
* KITDKFLGLGNGRQNIA, HAMVAVE, QQYHQLPLA = 0.68, 0.86, 0.57, 1.38, 1.43, 1.33 (controls 1 of 18)
* TISQVMNTLTRHGNNVA, DLENRED, QQYFRLPLS = 0.48, 0.36, 0.49, 0.08, 0.15, 0.64 (controls 1 of 18)
* KLLQNTGVGMRWAQNVA, HMSTRED, QQYHRLPFV = 0.85, 0.53, 0.52, 0.42, 0.88, 0.73 (controls 0 of 18)
* TVSQVHEMLTHNKNSVA, DMNTRES, QQYDRLPLS = 0.38, 0.13, 0.05, 0.01, -0.27, 0.11 (controls 0 of 18)
* KIIDFSLVSMKAHNSIA, DNDMRND, QQYDRLPLS = 0.44, 1.47, 0.61, 0.35, 0.74, 0.67 (controls 1 of 18)
* KMSQLNLYEWRNFNSVA, NASYRES, QQYHRLPLS = 1.45, 1.05, 0.53, 0.56, 0.93, 1.10 (controls 2 of 18)
* KLSQLTYKESRNKNNVA, EMTTRGS, QQYDRLPLS = nd, nd, nd, nd, nd, nd (controls 0 of 18)
* KISQMVRVGSTHKNSIA, EEATRAD, QQYHRLPLA = 0.49, 0.61, 0.25, 0.15, 0.46, 0.60 (controls 1 of 18)
* HMSMLTLGGMKARNSVA, QMTTREN, QQYDRLPLA = 0.50, 0.56, 0.30, 0.49, 0.48, 0.50 (controls 1 of 18)
* IVSQLMLIGMHAKNSIA, EASTRNN, QQYHRLPLI = 1.72, 1.55, nd, nd, 1.27, 2.24 (controls 1 of 18)
* KLQFSEEYESRNKNSVA, SAHQREV, QQYHRLPLS = -0.48, -0.64, -0.49, -0.77, -0.42, -0.29 (controls 2 of 18)
* TLTQVTMVESYNKNSVA, QAETRLE, QDYHRLPLS = nd, nd, nd, 3.05, nd, 2.88 (controls 0 of 18)
* ALSQSMDMTSRNKNSVA, DLTTRVN, QQYHRLPLS = 0.20, 0.03, 0.02, 0.16, 0.08, 0.29 (controls 1 of 18)
* KLSIMGLHQTIDKKSIA, ERSTREN, QQYHRLPLS = 0.40, 0.37, 0.15, 0.22, 0.43, 0.43 (controls 0 of 18)

The opening 3 entries, copied out:

{"CDR-L1": "AFSESAFYGQRDENAIA", "CDR-L2": "GADVRAK", "CDR-L3": "QQYWRLPLT", "log10 Kd, replicates": "0.49, 0.35, 0.30, 0.08, 0.10, 0.43", "signal with controls": "2 of 18"}
{"CDR-L1": "HLKTMPGQGPQTYSSIA", "CDR-L2": "HAELRTP", "CDR-L3": "QQYYRLPLM", "log10 Kd, replicates": "1.01, 1.05, 0.50, 0.31, 0.28, 0.74", "signal with controls": "1 of 18"}
{"CDR-L1": "KVQQSWLYESRNINNVA", "CDR-L2": "NASKRES", "CDR-L3": "QQYHRLPLS", "log10 Kd, replicates": "-0.14, 0.02, -0.13, -0.28, -0.32, -0.16", "signal with controls": "0 of 18"}

Background: pairings of all light chain designs with three empty control strains gave a value in 4% of cases (median 2.64, 5th percentile 1.59). Values in that range, when seen in few replicates, are hard to tell from nonspecific mating. The control count says in how many pairings with the empty strains this scFv gave a signal. The parent sequence was in this pool as ten entries: three were never detected, three once, and four in most replicates, with averages from 0.34 to 2.37. Values of this round are not directly comparable with the first-round values of the same sequences. The authors averaged sequences with at least three values out of six and counted those with two or fewer as poor binders.